How the values were obtained:
[1] = target: T1, Sigma intracellular receptor 2 (Rattus norvegicus, UniProt Q5U3Y7); format: cell membranes, Sprague-Dawley, Brain, Membrane
T1 sequence (Q5U3Y7 whole entry): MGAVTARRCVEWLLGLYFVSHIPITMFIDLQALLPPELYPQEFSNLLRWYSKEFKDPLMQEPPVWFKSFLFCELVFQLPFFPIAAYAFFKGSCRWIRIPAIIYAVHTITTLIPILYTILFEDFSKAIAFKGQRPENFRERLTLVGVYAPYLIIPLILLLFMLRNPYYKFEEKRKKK

Amino acid sequences for entries named in this document (tags omitted).
UniProt Q9R0C9, whole entry: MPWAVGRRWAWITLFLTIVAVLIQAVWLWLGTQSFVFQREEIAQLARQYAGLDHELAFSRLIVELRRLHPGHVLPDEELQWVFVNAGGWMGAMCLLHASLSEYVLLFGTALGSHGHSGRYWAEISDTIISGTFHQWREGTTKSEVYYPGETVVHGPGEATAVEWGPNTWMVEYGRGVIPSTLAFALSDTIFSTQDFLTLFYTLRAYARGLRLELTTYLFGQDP

[2] = target: Sigma non-opioid intracellular receptor 1 (Rattus norvegicus, UniProt Q9R0C9); format: cell membranes, Sprague-Dawley, Brain, Membrane

Ki [1]: 5410 nM
Ki [2]: 292 nM
Compound: CN(C)CCCC1(c2ccc(F)cc2)OCc2cc(C#N)ccc21 (configuration not stated) [CITALOPRAM]
